Legend:
[1] = test system: Single-chain (non-destabilized) IL-12 #29
[2] = test system: Single-chain (non-destabilized) IL-12 #30

Substance: human thrombin (489 Units/mg; Millipore)
- proteolytic digestion, 1 hour, reducing SDS-PAGE and anti-p40 Western blot (Destabilized IL-12 #14): completely digested with only 5 mU of thrombin when flanked with spacers
- proteolytic digestion, 1 hour, reducing SDS-PAGE and anti-p40 Western blot (Destabilized IL-12 #22): completely digested with only 5 mU of thrombin when flanked with spacers
- proteolytic digestion, 1 hour, reducing SDS-PAGE and anti-p40 Western blot [1]: completely digested with only 5 mU of thrombin when flanked with spacers
- proteolytic digestion, 1 hour, reducing SDS-PAGE and anti-p40 Western blot [2]: completely digested with only 5 mU of thrombin when flanked with spacers

Source: US20190062394A1
